Binding of CDR-mutated scFvs to a peptide of the spike HR2 region

From the AlphaSeq antibody data of Engelhart et al. 2022 (doi:10.1038/s41597-022-01779-4), copy in the FLAb collection.

All variants were tested on one target, the spike HR2 peptide PDVDLGDISGINAS (SARS-CoV-2).

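Phage display of a naive human antibody library on the peptide gave the parent. In library AAYL49, one, two or three CDR residues were substituted; doubles and triples were drawn at random. The scFvs were displayed on barcoded MATa yeast, the peptide on MATalpha yeast. The frequency of each diploid, read from paired DNA barcodes, reflects how well the two displayed proteins bind. The ratio of observed to expected reads was calibrated, replicate by replicate, on BCL2-family standards whose Kd was known from biolayer interferometry. Each pool was mated in three replicate cultures.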

Each scFv is VH, a 15-residue (Gly4Ser)3 linker, VL, as in the parent Ab-14, and differs from it in the CDRs of the heavy chain only.
VH: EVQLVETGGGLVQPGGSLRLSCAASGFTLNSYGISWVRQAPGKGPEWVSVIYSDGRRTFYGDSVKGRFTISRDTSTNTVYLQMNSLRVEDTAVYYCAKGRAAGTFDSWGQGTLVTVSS
VL: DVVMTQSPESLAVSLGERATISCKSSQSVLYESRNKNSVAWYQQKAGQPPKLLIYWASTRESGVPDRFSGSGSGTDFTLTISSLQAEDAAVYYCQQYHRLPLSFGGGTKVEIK

The parent's heavy chain CDRs are GFTLNSYGIS, VIYSDGRRTFYGDSVK, GRAAGTFDS; each variant's own CDRs replace them letter for letter. Numbers give log10(Kd / nM), so 0 is 1 nM and 3 is 1 µM. Smaller is tighter. An entry "ND" has no value in the source: the pair was not observed among the diploids in that replicate. This suggests poor binding but is not conclusive. Parent in this assay: reference entry 0.65, copy in this library 4.11 (one replicate of three). As a blank, each scFv also met three strains without target: over library AAYL49, 15% of these pairings were detected, typically at 4.06 and seldom below 2.83. The control count says in how many pairings with the empty strains this scFv gave a signal, with their mean in brackets.

| CDR-H1 | CDR-H2 | CDR-H3 | replicates, log10 nM | signal with controls |
|---|---|---|---|---|
| GITLNSYGIS | VIYSDVRRTWYGDSVK | GRAAGTFDS | ND 3.11 4.65 | 1 of 9 (3.20) |
| GFTLNSYGIS | VIYSDGRRTFYGDSLK | GRQAGTFDS | 2.78 1.99 2.25 | 1 of 9 (4.34) |
| AFTLNSYDIS | VIYSDGMRTFYGDSVK | GRAAGTFDS | ND 2.49 ND | 0 of 9 |
| GFTLLSYGIS | VIHSDGRRFFYGDSVK | GRAAGTFDS | ND ND ND | 0 of 9 |
| GFTVNSYGIS | VIYSDGRRAFYGQSVK | GRAAGTFDS | 1.26 1.89 1.40 | 2 of 9 (3.31) |
| GFTLNSYGIP | VIYSCGRRTFYGDSVK | GRAAGTFDS | 4.21 5.56 ND | 4 of 9 (4.32) |
| GFTLNSYGIS | VIYSDGRRTFMGWVVK | GRAAGTFDS | 6.22 3.65 ND | 6 of 9 (4.51) |
| GFRLNSYGIS | VIYSDGRRNFYGDSVK | GRAEGTFDS | ND ND ND | 0 of 9 |
| SFTLNDYEIS | VIYSDGRRTFYGDSVK | GRAAGTFDS | 5.77 ND 3.43 | 4 of 9 (3.92) |
| GFTLASYMIS | MIYSDGRRTFYGDSVK | GRAAGTFDS | ND ND ND | 3 of 9 (3.72) |
| GFTLNSYGIS | VITSDGRRTFYGDSVK | VRDAGTFDS | ND 2.93 ND | 1 of 9 (4.67) |
| GFTLNSYGQS | VIYSDGRRIFYGDSVK | GRAIGTFDS | ND 3.20 ND | 0 of 9 |
| GFELNSYGIS | VIHSDGRRTFYGDSVK | GRAAGTFHS | 3.60 4.12 4.02 | 1 of 9 (4.21) |
| GFTLNSYGIK | VIYSDGRRTFYGDSVK | MRAAATFDS | ND 2.47 ND | 0 of 9 |
| GFTLNSYIIS | VIYSDGRRTFYGDSVK | GREATTFDS | ND ND ND | 0 of 9 |
| GFTLNSYGIS | VIYSDGRRTFYGRSVK | GNAAGTFDQ | 1.57 2.32 1.63 | 0 of 9 |
| GFTLNSYGIS | VIYSDGRRTFCGWSVK | GRAAGCFDS | 3.35 2.85 ND | 2 of 9 (3.48) |
| MFELNSYGIS | VIYSDGRRTFYGDSVK | GRAAVTFDS | 2.57 2.28 2.99 | 3 of 9 (3.98) |
| GFTLNSYGIS | VIYSDLRRTFYRDSVW | GRAAGTFDS | ND ND ND | 0 of 9 |
| LFTLNSYGIS | APYSDGRRTFYGDSVK | GRAAGTFDS | ND ND ND | 3 of 9 (4.26) |
| GFTLNSYGIS | VIYSDARRTFYEDSVP | GRAAGTFDS | ND ND 4.24 | 1 of 9 (2.40) |
| GFTLNSYGIS | VIYSNGRHTFYGDSVK | GRAAYTFDS | ND ND ND | 0 of 9 |
| GFTLNIYGIS | VIYSDGRRTFYGDSHK | GRAAGTFWS | ND ND ND | 1 of 9 (5.11) |
| GFTLNSYGIL | VIYSRGQRTFYGDSVK | GRAAGTFDS | ND ND ND | 2 of 9 (3.31) |
| GFTHNSYGIS | VIYSDGRRTFYGDSVK | GRAWGTFAS | ND ND 3.95 | 0 of 9 |
| GFTLNSCPIS | VIYSDGRRTFYGDSVK | GRAAGTFDS | ND ND 4.39 | 0 of 9 |
| GFTLNSYGIS | VIYSDGRETPYGDSVK | GRAFGTFDS | ND 3.26 ND | 1 of 9 (4.42) |
| GFTLNSYGIV | VIYSDGVRTFYGDSVK | GRAAGTFDS | ND ND ND | 0 of 9 |
| GFTLNSYGID | WIYSAGRRTFYGDSVK | GRAAGTFDS | 3.50 ND ND | 2 of 9 (3.00) |
| GFDLNSYGIS | VWYFDGRRTFYGDSVK | GRAAGTFDS | 5.51 5.51 ND | 3 of 9 (3.98) |
| GFTLNSYGIS | VIYQDGRRKFYGDSVK | GRAGGTFDS | ND ND ND | 0 of 9 |
| GFTLCSYGIS | VIYSRGQRTFYGDSVK | GRAAGTFDS | ND ND ND | 1 of 9 (4.27) |
| GLTLNSYGIS | VGYSDGRRTFYGDLVK | GRAAGTFDS | 3.43 ND ND | 0 of 9 |
| GFTLNSYGIS | VIYSDGRRTFYGDGVQ | GRLAGTFDS | 0.96 0.89 0.94 | 0 of 9 |
| GFTLNCYGIS | VIYSDGRRTFYGDSVK | GRAACQFDS | 2.85 2.70 3.22 | 3 of 9 (4.09) |
| GFDLNQYGIS | VIYSDGRRTFYGDSVK | NRAAGTFDS | ND 3.66 2.57 | 1 of 9 (3.51) |
| GFTLNSYGIE | VIYSDGRRTFYWQSVK | GRAAGTFDS | ND ND ND | 0 of 9 |
| GFTLNSYGII | VIFSDGRRTLYGDSVK | GRAAGTFDS | ND ND ND | 2 of 9 (3.30) |
| GKTLNSYGIS | VIYSDGRRTFYGDSYK | GRAAGTFLS | ND 3.57 ND | 0 of 9 |
| GFTLNSYGIS | VIYSDGRRTKYGDSKK | GRAAGTFSS | ND ND ND | 0 of 9 |
| GFTLNSYGIS | VIYSDARRTFYGDSAK | GRAAGTTDS | 4.84 ND ND | 2 of 9 (4.87) |
| GFTLNSYGIS | VIYSDGYRTFYGDSVK | GRAAGTFDS | 1.03 1.07 1.21 | 2 of 9 (3.48) |
| GRTLNSYGIS | VIYSDGKRTFYGDSVI | GRAAGTFDS | ND ND ND | 0 of 9 |
| GFHLFSYGIS | VIYSDGRRTFYGDSVK | GRALGTFDS | 3.54 ND 3.39 | 0 of 9 |
| GFTLNSYGIS | VIYSDGRRTFYGDSVK | KRAAMTWDS | ND ND ND | 1 of 9 (3.61) |
| GFTLNCYGIS | VIYSDGRRTFYVDSVK | GRAAGTGDS | 2.41 2.56 2.27 | 0 of 9 |

For reference, 4 entries of the list once more:

| CDR-H1 | CDR-H2 | CDR-H3 | replicates, log10 nM | signal with controls |
|---|---|---|---|---|
| GKTLNSYGIS | VIYSDGRRTFYGDSYK | GRAAGTFLS | ND 3.57 ND | 0 of 9 |
| GFTLNSYGIS | VIYSDGRRTFYGDGVQ | GRLAGTFDS | 0.96 0.89 0.94 | 0 of 9 |
| GFTLNSYGIS | VIYSDGRRTFYGDSVK | KRAAMTWDS | ND ND ND | 1 of 9 (3.61) |
| SFTLNDYEIS | VIYSDGRRTFYGDSVK | GRAAGTFDS | 5.77 ND 3.43 | 4 of 9 (3.92) |